Values quoted from earlier work, collected in article PMC5671894 (Journal of biological inorganic chemistry : JBIC : a …, 2017).

Target: PTP1B
Conditions: competitive inhibitor; cited from earlier work

[O]=[V]([OH])([OH])[OH] [orthovanadate]
Ki: ~0.3 µM
